The text below walks through data of PMC5553068 (Bioorganic & medicinal chemistry, 2017).

Amino acid sequences for entries named in this document (tags omitted). Residues count along the entry.
UniProt P00797, 67-406: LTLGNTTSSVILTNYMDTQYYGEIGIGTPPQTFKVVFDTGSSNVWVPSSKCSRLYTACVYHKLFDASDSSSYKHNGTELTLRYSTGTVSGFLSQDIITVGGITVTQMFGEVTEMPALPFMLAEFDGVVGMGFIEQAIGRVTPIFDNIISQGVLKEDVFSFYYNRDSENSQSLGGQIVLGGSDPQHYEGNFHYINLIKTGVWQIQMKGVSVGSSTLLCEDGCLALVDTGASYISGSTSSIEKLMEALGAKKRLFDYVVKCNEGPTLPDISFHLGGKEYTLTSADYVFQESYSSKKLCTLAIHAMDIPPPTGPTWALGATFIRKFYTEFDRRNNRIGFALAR

The target of this experiment is human renin (Homo sapiens, UniProt P00797). To be noted: Table 7; for Relative LE cf. 7b: LE values normalized to 7b; for LE: based on measured IC50.

Structures are written as SMILES.

For `CCc1nc(N)cc(C)c1-c1ccc(F)c2c(C)c(CCOC)[nH]c12` [Compound 27, 6-Ethyl-5-(4-fluoro-2-(2-methoxyethyl)-3-methyl-1H-indol-7-yl)-4-methylpyridin-2-amine], the “Relative LE cf. 7b” value worked out at 1.18 and the LE turned out to be 0.39.

Take `CCc1nc(N)cc(C)c1-c1ccc2c(c1)N(CCNC(C)=O)C(=O)C(C)(C)O2` [Compound 32, N-(2-(6-(6-Amino-2-ethyl-4-methylpyridin-3-yl)-2,2-dimethyl-3-oxo-2H-benzo[b][1,4]oxazin-4(3H)-yl)ethyl)acetamide]: the “Relative LE cf. 7b” value came to 1.06 and the LE is 0.35.

Consider `CCc1nc(N)cc(OC)c1-c1ccc2c(c1)N(CCNC(C)=O)C(=O)C(C)(C)O2` [Compound 33, N-(2-(6-(6-Amino-2-ethyl-4-methoxypyridin-3-yl)-2,2-dimethyl-3-oxo-2H-benzo[b][1,4]oxazin-4(3H)-yl)ethyl)acetamide], for which the “Relative LE cf. 7b” value is reported as 1.05 and the LE is 0.33.
